This assay deals with Tyrosine-protein kinase JAK2 (Homo sapiens, UniProt O60674).

Sequences of proteins named here, by UniProt entry; tags and fusion partners are left off. A change or cut given only in a name is not applied to a line headed by its entry.
UniProt O60674: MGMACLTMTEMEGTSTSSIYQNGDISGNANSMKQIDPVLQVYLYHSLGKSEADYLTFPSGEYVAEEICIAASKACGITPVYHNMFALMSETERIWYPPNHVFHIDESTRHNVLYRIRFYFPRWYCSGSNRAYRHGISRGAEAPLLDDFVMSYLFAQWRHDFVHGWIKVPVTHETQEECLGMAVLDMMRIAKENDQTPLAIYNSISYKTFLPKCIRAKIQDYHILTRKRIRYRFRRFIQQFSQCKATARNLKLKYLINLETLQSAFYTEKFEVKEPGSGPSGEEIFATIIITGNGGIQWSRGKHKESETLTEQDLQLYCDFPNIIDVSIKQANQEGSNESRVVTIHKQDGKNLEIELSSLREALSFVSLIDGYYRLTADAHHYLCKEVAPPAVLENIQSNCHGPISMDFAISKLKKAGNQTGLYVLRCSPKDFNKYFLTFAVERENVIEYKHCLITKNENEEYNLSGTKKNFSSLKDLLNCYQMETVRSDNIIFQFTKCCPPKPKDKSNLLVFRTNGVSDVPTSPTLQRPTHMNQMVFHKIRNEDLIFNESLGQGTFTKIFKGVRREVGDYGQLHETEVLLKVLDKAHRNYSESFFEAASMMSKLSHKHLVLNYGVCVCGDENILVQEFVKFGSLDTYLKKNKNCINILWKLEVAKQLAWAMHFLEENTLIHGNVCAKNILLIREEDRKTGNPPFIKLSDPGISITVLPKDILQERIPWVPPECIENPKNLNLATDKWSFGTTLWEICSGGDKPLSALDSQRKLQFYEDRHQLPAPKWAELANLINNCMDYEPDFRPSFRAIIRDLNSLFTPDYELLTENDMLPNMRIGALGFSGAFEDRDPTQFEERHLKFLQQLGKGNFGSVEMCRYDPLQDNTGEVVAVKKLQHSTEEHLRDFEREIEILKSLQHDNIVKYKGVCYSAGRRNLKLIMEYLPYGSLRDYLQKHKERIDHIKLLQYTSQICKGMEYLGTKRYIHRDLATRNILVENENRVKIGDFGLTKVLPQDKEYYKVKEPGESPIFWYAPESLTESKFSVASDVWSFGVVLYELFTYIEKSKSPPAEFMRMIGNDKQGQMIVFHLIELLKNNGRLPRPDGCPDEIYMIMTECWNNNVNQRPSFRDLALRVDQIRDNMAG

SMILES strings stand for the structures.

Broadly, the IC50 is the concentration that inhibits the measured activity by half. Take `CCS(=O)(=O)N1CC(CC#N)(n2cc(-c3ncnc4[nH]ccc34)cn2)C1` [BARICITINIB]: the IC50 was determined as 2.9 nM.

For the origin of these results see ChEMBL document CHEMBL5316322, “Discovery and Characterization of the Topical Soft JAK Inhibitor CEE321 for Atopic Dermatitis” (J Med Chem, 2023).
